The values that follow come from patent US20250297017A1.

What all share (assay): ELISA, titrated test article
A general note: In an ELISA, binding on a coated surface is turned into a signal by an enzyme label.

Assay [1] deals with human CD3 (ELISA antigen) (human).
Assay [2] has as its target cynomolgus monkey CD3 (ELISA antigen) (cynomolgus monkey).
In assay [3] the target is rat CD3 (ELISA antigen) (rat).
Assay [4] concerns the target mouse CD3 (ELISA antigen) (mouse).

Turning to “PC-1-MMP cleaved (matrix metalloprotease cleaved PC-1, MMP9 treated) (bispecific antibody)”, the EC50 in assay [1] was 0.09 nM; in assay [2], 0.09 nM; in assay [3], 415 nM.
On to “PC-1-SP cleaved (serine protease cleaved PC-1, MTSP1 treated) (bispecific antibody)”, for which the 50% effective concentration (EC50) in assay [1] came out at 0.08 nM; in assay [2] it was 0.08 nM; in assay [3], 542 nM.
For “PC-1-TCE (non-masked EGFR x CD3 bispecific T cell engager) (bispecific antibody)”, the 50% effective concentration (EC50) in assay [3] came out at 20 nM; in assay [4], 767 nM.

For orientation: EC50 means the concentration needed to bring the measured effect to its halfway point.
